# Experimental data published in PubChem BioAssay AID652104 (National Center for Advancing Translational Sciences (NCATS), 2013).
# The list shows a part of the results, in another mix than the full data. Records with an inconclusive call do not appear. Calls of active or inactive are those of the source. The call rests on the fitted dose curve; in most records, active means well fitted activation curve with a large enough effect; inconclusive means small, poorly fitted or top-dose-only effect, or another doubt; inactive means no such curve, though single readings can be large or run the other way.
# Test: qHTS of TDP-43 Inhibitors; further: % of control where 0% means no effect; nearly all actives have a fitted effect of over 50% in size
# Details: TDP-43 expressing yeast growth rescue, BacTiter-Glo, 24 h; at 46.1 µM (top of the series) unless noted
row,SMILES,growth rescue (activation)
1,CCOc1ncccc1C(=O)NCC1(N2CCOCC2)CCCCC1,inactive: 7.96%
2,CN1CCC(Nc2ccc(F)c(Cl)c2)CC1,inactive: -29.7%
3,CC(C)(C)OC(=O)N1CCC(Nc2ccccc2)CC1,inactive: -25.4% [at 0.397 µM]
4,O=C(O)C1(Nc2ccccc2)CCN(Cc2ccccc2)CC1,inactive: 24%
5,NN(c1ccccc1)C1CCN(CCc2ccccc2)CC1,inactive: 15.5%
6,O=c1[nH]c2ccccc2n1C1CCN(C(c2cc3ccccc3o2)c2nnnn2C2CCCC2)CC1 (stereo unspecified),inactive: 19.4%
7,CCCOc1ccc(C(=O)NCC2(N(C)C)CCCCC2)cc1,inactive: 3.58%
8,COc1cccc(C(c2nnnn2C2CCCC2)N2CCC(n3c(=O)[nH]c4ccccc43)CC2)c1OC (stereo unspecified),inactive: 0%
9,COc1cc(OC)cc(C(=O)NCC2(N3CCOCC3)CCCCC2)c1,inactive: 12.6%
10,COc1cc(C(=O)NCC2(N3CCOCC3)CCCCC2)cc(OC)c1OC,inactive: 9.81%
11,COc1cccc(C(=O)N(c2cc(C)cc(C)c2)C2CCN(C(=O)OC(C)(C)C)CC2)c1,inactive: -13.5%
12,CCC(CO)(C(=O)OC1CN2CCC1CC2)c1ccccc1 (stereo unspecified),inactive: -5.65%
13,CN1CCC(Nc2ccc(Cl)cc2)CC1,inactive: -10.9%
14,COc1cccc(C(c2nnnn2C2CCCCC2)N2CCC(n3c(=O)[nH]c4ccccc43)CC2)c1OC (stereo unspecified),inactive: 21%
15,CN(C)C1(CNC(=O)c2ccc(C(C)(C)C)cc2)CCCCC1,inactive: -13.6%
16,CC(=O)N(c1ccccc1)C1CCNCC1,inactive: -11%
17,CCC(c1nnnn1C1CCCCC1)N1CCC(n2c(=O)[nH]c3ccccc32)CC1 (stereo unspecified),inactive: 0%
18,COc1cc(OC)cc(C(=O)NCC2(N3CCCCC3)CCCCC2)c1,inactive: 4.5%
19,O=c1[nH]c2ccccc2n1C1CCN(C(c2ccnc3ccccc23)c2nnnn2C2CCCCC2)CC1 (stereo unspecified),inactive: 17.3%
20,Cc1ccc(C(=O)NCC2(N3CCCCC3)CCCCC2)o1,inactive: 3.07%
21,Fc1ccccc1NC1CCN(Cc2ccccc2)CC1,inactive: -16.7%
22,Cc1ccc(NC2(C#N)CCN(Cc3ccccc3)CC2)cc1,inactive: -11.4%
23,Cc1ccccc1NC1(C#N)CCN(Cc2ccccc2)CC1,inactive: -4.42%

row,SMILES,growth rescue (activation)
1,CCN1CCC(Nc2cccc(F)c2)CC1,inactive: 2.22%
2,COc1ccc(C(c2nnnn2C2CCCCC2)N2CCC(n3c(=O)[nH]c4ccccc43)CC2)cc1 (stereo unspecified),inactive: 26.8%
3,CC(C)(C)n1nnnc1C(c1ccnc2ccccc12)N1CCC(n2c(=O)[nH]c3ccccc32)CC1 (stereo unspecified),inactive: 9.36%
4,Cc1ccccc1C(=O)NCC1(N(C)C)CCCCC1,inactive: 13.2%
5,O=C(NCC1(N2CCCCC2)CCCCC1)c1ccco1,inactive: 14.5%
6,CC(C)(C)c1ccc(C(=O)NCC2(N3CCOCC3)CCCCC2)cc1,inactive: 12.9%
7,CN(C)c1ccc(C(=O)NCC2(N3CCCCC3)CCCCC2)cc1,inactive: 7.64%
8,Cn1c(=O)[nH]cc(N(CCCl)CCCl)c1=O,inactive: 15.9%
9,N#Cc1ccc(C(=O)NCC2(N3CCCCC3)CCCCC2)cc1,inactive: -15.2%
10,O=C(NCC1(N2CCOCC2)CCCCC1)c1ccccc1[N+](=O)[O-],inactive: -33.2%
11,O=C(NCC1(N2CCOCC2)CCCCC1)c1ccc([N+](=O)[O-])cc1,inactive: 5.36%
12,CC(C)(C)OC(=O)N1CCC(N(C(=O)c2ccccc2)c2ccc(Cl)cc2)CC1,inactive: 10.5%
13,CCOC(=O)C(CC)C1=NC(C)(C)Cc2ccccc21.O=[N+]([O-])c1cc([N+](=O)[O-])c(O)c([N+](=O)[O-])c1 (stereo unspecified),inactive: 6.18%
14,CN(C)C1(CNC(=O)c2cccc(C#N)c2)CCCCC1,inactive: 0.44%
15,c1ccc(CN2CCC(Nc3ccccc3)CC2)cc1,inactive: 4.91%
16,O=C(NCC1(N2CCOCC2)CCCCC1)c1ccccc1,inactive: 4.36%
17,CCCN1CCC(Nc2cc(OC)cc(OC)c2)CC1,inactive: 9.35%
18,O=c1[nH]c2ccccc2n1C1CCN(C(c2ccccc2)c2nnnn2C2CCCC2)CC1 (stereo unspecified),inactive: 25.1%
19,CCCCn1nnnc1C(c1ccccc1)N1CCC(n2c(=O)[nH]c3ccccc32)CC1 (stereo unspecified),inactive: 22.1%
20,COc1cc(C(=O)NCC2(N3CCOCC3)CCCCC2)cc(OC)c1C,inactive: 14.3%
21,O=C(NCC1(N2CCOCC2)CCCCC1)c1cc(Br)ccc1Cl,inactive: -0.177%
22,O=c1[nH]c2ccccc2n1C1CCN(C(c2cccs2)c2nnnn2C2CCCCC2)CC1 (stereo unspecified),inactive: 33.7%
23,COc1ccc(C(=O)NCC2(N3CCOCC3)CCCCC2)cc1OC,inactive: -5.76%
